Shown are actives, neighbours in structure and some others; about 3.7% of the full set was active somewhere.
ClpP mod: qHTS Assay for Activators of ClpP; Potency, µM (highest dose often 57.5 µM); ATP-dependent Clp protease proteolytic subunit (Bacillus subtilis (strain 168)), P80244; 340,000 tested, 1.9% active; purified B. subtilis ClpP, FRET peptide cleavage, 20 min; active = well fitted falling curve with a large enough effect; inconclusive = small, poorly fitted or top-dose-only effect; inactive = no such curve, though single readings can be large or run the other way; also: the source files actives as falling curves though it sought activators and does not explain the sign; nearly all actives have a fitted effect of over 65% in size
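ClpP 10 microg/mL final, pH 8 Tris/KCl buffer with BSA, glycerol, Tween-20; compound pinned in; FRET-FV substrate; RT 20 min; Ex320/Em430; ΔFRET vs ADEP 5.8 microM, DMSO, no enzyme.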
A549 tox: A549 cytotoxicity, counter-screen for Nrf2 inhibitors. 390,000 tested, 0.16% active. AID 504648. A549 ARE-Fluc cells, CellTiter-Fluor viability, 18-24 h. Potency, µM (doses to about 46 µM), hits mostly inhibitors
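A549 ARE-Fluc cells in 5% FBS OPTI-MEM, 5000 cells/well, rested 2 h then exposed to compounds in concentration-response for 18-24 h at 37 °C. Viability by CellTiter-Fluor fluorescence (Ex 405/Em 525) after 30 min; luciferase luminescence (BugLite, 15 min, RT) read afterwards.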
Nrf2 inh: inhibitors of Nrf2 signaling | A549 ARE-Fluc reporter, luciferase luminescence, 18-24 h | Potency, µM (top dose mostly 46 µM), hits mostly inhibitors | 360,000 tested, 2.1% active | AID 504444; also: nearly all actives have a fitted effect of over 60% in size
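Quantitative HTS in A549 cells stably bearing an antioxidant response element-firefly luciferase construct. Inhibition of Nrf2-driven transcription was scored by luminescence after 18-24 h of compound exposure at 37 °C.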
Nrf2 ARE act: Nrf2 pathway activation | AREc32 ARE-luciferase reporter (MCF7-derived line), luminescence, 24 h | Potency, µM (series often up to 46.1 µM), usual class: activators | 410,000 tested, 0.31% active | AID 624171; also: nearly all actives have a fitted effect of over 65% in size
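ARE-driven firefly luciferase activity in AREc32 cells measured after a 24 hr compound exposure at 37 deg C, using Steady-Glo reagent and a 30 min room-temperature hold.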
p53 reactivator: mutant p53 re-activation in reporter cells; Potency, µM (series often up to 92.2 µM), actives largely listed as activators; H1299 p53-A138V BP100-luciferase reporter, luminescence, 24 h; 320,000 tested, 0.063% active; AID 504706; also: nearly all actives have a fitted effect of over 45% in size
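p53-null H1299 cells stably carrying temperature-sensitive p53-A138V and a BP100-luciferase reporter were pinned with compounds (4-point, 1:5 series) and held 24 hrs at 37 deg C. Luminescence was read 10 min after detection reagent.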
miR-21 FLuc: raises the signal of a miR-21 reporter; HeLa miR-21 FLuc reporter, luciferase, 48 h; Potency, µM (top dose mostly 38.3 µM); AID 2288; 340,000 tested, under 10 active; active = well fitted rising curve with a large enough effect; inconclusive = small, poorly fitted or top-dose-only effect; inactive = no such curve, though single readings can be large or run the other way;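 note: miR-21 action dims this reporter so a rising signal means less miR-21 action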
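Luminescence from a firefly luciferase reporter carrying a miR-21 binding site downstream, stably expressed under a CMV promoter in HeLa cells that make miR-21 endogenously, reports miRNA modulation after 48 h compound exposure up to approximately 40uM final.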
Each line names hits and unclear results; the compound was inactive in the other large screens. Unless noted, calls follow the shape of the dose curve; as a rule, active = well fitted curve in the direction sought with a large enough effect; inconclusive = small, poorly fitted or top-dose-only effect, or another doubt; inactive = no such curve, though single readings can be large; an effect the other way counts as inactive or inconclusive.

O=C(c1ccccc1F)N1CCN(c2cccc(C(F)(F)F)c2)CC1	A549 tox inconclusive, Nrf2 inh 18.4µM
Cc1ccc(C)c(N2CCN(C(=O)C3CCN(C(=O)c4cc5sccc5n4C)CC3)CC2)c1	A549 tox inconclusive, Nrf2 inh 20.6µM, miR-21 FLuc inconclusive (no result: p53 reactivator)
COc1ccc(OCC(=O)N2CCN(c3cccc(C(F)(F)F)c3)CC2)cc1	none
CC1(C2CC2)NC(=O)N(CC(=O)N2CCN(c3cccc(C(F)(F)F)c3)CC2)C1=O (stereo not given)	Nrf2 inh 11.6µM (no result: miR-21 FLuc)
S=C(Nc1ccccc1Cl)N(Cc1ccccc1)Cc1ccccn1	Nrf2 inh 20.6µM (no result: ClpP mod)
COc1ccccc1NC(=S)N(Cc1ccccc1)Cc1ccccn1	Nrf2 inh inconclusive
Cc1[nH]nc2c1C(c1ccsc1C)C(C#N)=C(N)O2 (stereo not given)	none
Cc1[nH]nc2c1C(c1ccc(-c3ccc(Cl)cc3)o1)C(C#N)=C(N)O2 (stereo not given)	Nrf2 ARE act 15.8µM
Cc1cc(C2C(C#N)=C(N)Oc3n[nH]c(C)c32)c(C)s1 (stereo not given)	ClpP mod 17.8µM
COc1ccc(OC)c(-n2c(=O)[nH]c3cc(C(=O)NCCc4ccc(OC)c(OC)c4)ccc3c2=O)c1	none (no result: p53 reactivator)
O=C(NCc1ccccc1Br)c1ccc2nc(N3CCCCC3)sc2c1	none (no result: p53 reactivator)
COc1c(/C=N/Nc2nc(N3CCCCC3)nc(N3CCCCC3)n2)cccc1[N+](=O)[O-]	Nrf2 inh inconclusive
O=[N+]([O-])c1ccc(/C=N/Nc2nc(N3CCCCC3)nc(N3CCCCC3)n2)o1	A549 tox inconclusive, Nrf2 inh 18.4µM, p53 reactivator inconclusive
CCCN1CCC(=O)N(CCC#N)CC1	none (no result: A549 tox, Nrf2 inh, Nrf2 ARE act, p53 reactivator, miR-21 FLuc)
CCCn1cc2c(c1-c1cccc(C)c1)c(=O)n(C)c(=O)n2C	ClpP mod 14.1µM
CCc1nnc2n1N(C(C)=O)C(c1ccc(C(C)(C)C)cc1)=C(C(C)=O)S2	A549 tox inconclusive, miR-21 FLuc inconclusive (no result: Nrf2 inh, p53 reactivator)
COC(=O)c1c(NC(=O)CSc2nnc3ccccn23)sc2c1CCC2	ClpP mod 28.2µM
O=C(COc1ccc([N+](=O)[O-])cc1)Nc1nc2c(s1)CCCC2	none (no result: p53 reactivator)
COc1nc(C#N)nc(N2CCCC2)n1	Nrf2 inh inconclusive (no result: Nrf2 ARE act, p53 reactivator, miR-21 FLuc)
CCOc1nc(C#N)nc(N2CCCCC2)n1	Nrf2 inh 16.4µM
CN(C)c1ccc(C(CNS(=O)(=O)c2ccc(F)cc2)N2CCCC2)cc1 (stereo not given)	miR-21 FLuc inconclusive (no result: Nrf2 inh, p53 reactivator)
O=C(Nc1ccc(-c2nc3ccccc3o2)cc1)c1cc(-n2cnnc2)ccc1Cl	ClpP mod inconclusive, Nrf2 inh inconclusive
O=C(Nc1ccc(-c2nc3ccccc3o2)c(O)c1)c1cc(-n2cnnc2)ccc1Cl	Nrf2 inh 10.3µM (no result: A549 tox)
COc1cc(C(=O)Nc2ccc(-c3nc4cc(C)ccc4o3)c(O)c2)cc(OC)c1OC	ClpP mod 28.2µM, Nrf2 inh 20.6µM
COc1cccc(C(=O)Nc2cc(Cl)c(O)c(Cl)c2)c1	Nrf2 ARE act 3.98µM
COc1ccc(NC(=O)c2cccc(Oc3ccccc3)c2)cn1	Nrf2 inh 25.9µM (no result: ClpP mod)
COc1cccc(C(=O)Nc2ccc(NC(C)=O)cc2)c1	none
COc1cccc(CNC(=O)c2sc3nc4n(c(=O)c3c2C)CCC4)c1	none (no result: p53 reactivator)
COc1cccc(C(=O)Nc2ccc(-c3nc4ccccc4o3)c(O)c2)c1	ClpP mod 28.2µM
Cc1ccc(NC(=O)C(C)OC(=O)CCNS(=O)(=O)c2ccc(C)cc2)cc1 (stereo not given)	ClpP mod 31.6µM
CC(=O)Nc1ccc(S(=O)(=O)NCCC(=O)OC(C)C(=O)c2ccc(C)cc2)cc1 (stereo not given)	none (no result: p53 reactivator)
Cc1ccc(S(=O)(=O)NCCC(=O)OC(C)C(=O)NC2CC2)cc1 (stereo not given)	none (no result: miR-21 FLuc)
Cc1ccc(S(=O)(=O)NCCCCCC(=O)Nc2ccccc2)cc1	ClpP mod 28.2µM, Nrf2 inh inconclusive
